Molecular target: T1, DYRK2 (Homo sapiens, UniProt Q92630)
T1 sequence (Q92630 1-601): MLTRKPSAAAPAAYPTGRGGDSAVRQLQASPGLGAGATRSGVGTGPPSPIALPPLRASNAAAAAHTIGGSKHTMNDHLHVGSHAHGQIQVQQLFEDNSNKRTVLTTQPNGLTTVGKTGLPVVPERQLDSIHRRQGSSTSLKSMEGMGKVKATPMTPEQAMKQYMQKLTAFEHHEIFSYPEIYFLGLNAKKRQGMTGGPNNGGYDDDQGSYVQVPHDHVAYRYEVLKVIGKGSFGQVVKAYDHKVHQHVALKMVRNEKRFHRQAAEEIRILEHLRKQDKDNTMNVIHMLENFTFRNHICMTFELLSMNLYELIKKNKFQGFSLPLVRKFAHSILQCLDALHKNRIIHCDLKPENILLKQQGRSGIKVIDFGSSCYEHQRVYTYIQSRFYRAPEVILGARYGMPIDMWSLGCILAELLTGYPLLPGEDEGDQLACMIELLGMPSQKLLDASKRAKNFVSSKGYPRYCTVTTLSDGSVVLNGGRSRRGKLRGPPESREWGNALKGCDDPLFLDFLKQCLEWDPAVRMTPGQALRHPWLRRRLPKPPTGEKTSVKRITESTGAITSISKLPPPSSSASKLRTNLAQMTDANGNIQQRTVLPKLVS
Test: Kinase profiling
Type: biochemical

CCN1CCN(Cc2ccc(Nc3ncc(F)c(-c4cc(F)c5nc(C)n(C(C)C)c5c4)n3)nc2)CC1 [Abemaciclib, reference compound]
IC50: > 50 µM
